The values below come from US9951038B2, “Quinazolin-4(3H)-one-type piperidine compounds and uses thereof” (Purdue Pharma L.P., priority 2012, dated 2018).

By UniProt entry, the sequences of proteins in these tests, tags left out. Where a name states a change or a piece, a line headed by the entry shows the natural chain unless it says otherwise.
UniProt P41146: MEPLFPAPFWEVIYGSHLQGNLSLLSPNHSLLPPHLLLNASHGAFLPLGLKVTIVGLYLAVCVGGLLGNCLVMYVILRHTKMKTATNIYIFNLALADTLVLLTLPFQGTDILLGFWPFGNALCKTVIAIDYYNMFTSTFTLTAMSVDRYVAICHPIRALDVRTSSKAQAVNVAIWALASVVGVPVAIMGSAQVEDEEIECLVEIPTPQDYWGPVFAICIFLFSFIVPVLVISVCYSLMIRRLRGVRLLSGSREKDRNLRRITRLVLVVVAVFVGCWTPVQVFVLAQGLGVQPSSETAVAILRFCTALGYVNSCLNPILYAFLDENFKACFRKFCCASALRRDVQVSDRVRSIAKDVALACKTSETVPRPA

Usually Ki stands for the dissociation constant of the complex between target and ligand, obtained from inhibition or displacement.

This test addresses human opioid receptor-like (ORL-1) (Homo sapiens, UniProt P41146). Description: In vitro ORL-1 receptor binding assay ([3H]-nociceptin displacement). As to conditions: read-out: ORL-1 Ki; Average ± Std Deviation; membranes from recombinant HEK-293 cells, 0.1 nM [3H]-nociceptin.
Turning to `O=C(O)Cn1c(=O)n(C2C[C@H]3CCC[C@@H](C2)N3C2C[C@H]3CCCC[C@@H](C2)C3)c(=O)c2ccccc21` (stereo partly drawn) [21 (J3a), 2-(3-((1R,3R,5S)-9-((1R,6S,8r)-bicyclo[4.3.1]decan-8-yl)-9-azabicyclo[3.3.1]nonan-3-yl)-2,4-dioxo-3,4-dihydroquinazolin-1(2H)-yl)acetic acid], the Ki worked out at 72.7 nM. On to `O=C(O)c1nc2ccccc2c(=O)n1C1C[C@H]2CCC[C@@H](C1)N2C1C[C@H]2CCC[C@@H](C1)C2` (stereo partly drawn) [9 (D2b), 3-((1R,1′R,3R,3′R,5S,5′S)-[3,9′-bi(9′-azabicyclo[3.3.1]nonan)]-3′-yl)-4-oxo-3,4-dihydroquinazoline-2-carboxylic acid], for which the Ki worked out at 8.86 nM. The figure for `O=c1[nH]c2ccccc2c(=O)n1C1C[C@H]2CCC[C@@H](C1)N2C1C[C@H]2CCC[C@@H](C1)C2` (some centres unmarked) [12 (D1a)] is 4.98 nM; for `O=C(O)Cn1c(=O)n(C2C[C@H]3CCC[C@@H](C2)N3C2C[C@H]3CCC[C@@H](C2)C3)c(=O)c2ccccc21` (stereo partly drawn) [15 (D3a), 2-(3-((1R,1′R,3r,3′R,5S,5′S)-[3,9′-bi(9′-azabicyclo[3.3.1]nonan)]-3′-yl)-2,4-dioxo-3,4-dihydroquinazolin-1(2H)-yl)acetic acid] it is 46.1 nM; for `O=C(O)CNC(=O)Cn1c(=O)n(C2C[C@H]3CCC[C@@H](C2)N3C2C[C@H]3CCC[C@@H](C2)C3)c(=O)c2ccccc21` (stereo partly drawn) [18 (D28a), 2-(2-(3-((1R,1′R,3r,3′R,5S,5′S)-[3,9′-bi(9′-azabicyclo[3.3.1]nonan)]-3′-yl)-2,4-dioxo-3,4-dihydroquinazolin-1(2H)-yl)acetamido)acetic acid] it is 134 nM.
